{"source": "patent US20250318521A1", "about": "“COMBINATION FOR REDUCING PHYTOTOXICITY OF SYSTEMIC FUNGICIDES IN CROPS AND RELATED METHODS” (UPL Mauritius Limited, priority 2024, published 2025)", "system": "soyabean crop", "experiment": "Evaluation of % damage in soyabean crop using safener (prothioconazole phytotoxicity reduction)", "conditions": "for damage to crop: compared with the other safeners; for % Damage: soyabean", "description": "A 480 SC (suspension concentrate) formulation of prothioconazole was used. The application amount of prothioconazole was high in an amount of 350 g ai/ha.\nA 480 SC (suspension concentrate) formulation of prothioconazole was used. The application amount of prothioconazole was lower in an amount of 175 g ai/ha."}
{"substance": "zinc salt of ethylenediaminetetraacetic acid (EDTA) [Zn chelate (Zinc EDTA)]", "values": [{"measurement": "damage to crop", "setting": "Table 1, prothioconazole 350 g ai/ha", "value": "significantly lesser"}, {"measurement": "damage to crop", "setting": "Table 2, prothioconazole 175 g ai/ha", "value": "significantly lesser"}, {"measurement": "% Damage", "setting": "prothioconazole 175 g ai/ha (480 SC) + safener 67 g ai/ha, ratio 2:1", "value": 5.0, "unit": "%"}, {"measurement": "% Damage", "setting": "prothioconazole 175 g ai/ha (480 SC) + safener 202 g ai/ha, ratio 1:0.8", "value": 7.0, "unit": "%"}, {"measurement": "% Damage", "setting": "prothioconazole 350 g ai/ha (480 SC) + safener 67 g ai/ha, ratio 5:1", "value": 15, "unit": "%"}, {"measurement": "% Damage", "setting": "prothioconazole 350 g ai/ha (480 SC) + safener 202 g ai/ha, ratio 1.7:1", "value": 10, "unit": "%"}]}
